## Ab-14 light chain CDR variants: yeast mating affinities

Reference: Engelhart et al. 2022, doi:10.1038/s41597-022-01779-4. File: FLAb, binding data.

Binding partner: SARS-CoV-2 spike HR2 peptide, sequence PDVDLGDISGINAS.

The variants keep the heavy chain, the linker and the frameworks of Ab-14 (scFv order VH, a (GGGGS)3 linker, VL).
VH: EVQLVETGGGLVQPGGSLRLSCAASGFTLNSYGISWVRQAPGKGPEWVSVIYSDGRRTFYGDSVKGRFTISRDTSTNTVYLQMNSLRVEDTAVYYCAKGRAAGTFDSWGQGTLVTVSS
VL: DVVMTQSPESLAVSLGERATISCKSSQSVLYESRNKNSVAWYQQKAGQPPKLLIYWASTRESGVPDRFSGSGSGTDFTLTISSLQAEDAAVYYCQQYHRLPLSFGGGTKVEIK

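The starting antibody came from a phage panning campaign against this peptide. In library AAYL50, one, two or three CDR residues were substituted; doubles and triples were drawn at random. Affinity was read by AlphaSeq, a pooled yeast mating assay with surface-displayed partners. Binding brings cells together so that they mate, and sequencing counts the barcode pairs among the diploids. Scores were corrected for input abundance and mapped to Kd with protein pairs of known affinity run in the same pool. Mating was done three times.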

Sequences are complete VL domains.
The Kd shown is the geometric mean over detected replicates; a lower Kd is a better binder.
An entry "no signal" has no value in the source: the pair was not observed among the diploids in any replicate. This suggests poor binding but is not conclusive.

| VL | Kd (apparent) | detected |
|---|---|---|
| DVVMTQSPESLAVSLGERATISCWSSQSVLYESRNKNTVAWYQQKAGQPPKLLIYWLSTRESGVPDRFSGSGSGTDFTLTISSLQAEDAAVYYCQQYHRLPLSFGGGTKVEIK | no signal | 0/3 |
| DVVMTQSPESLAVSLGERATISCKSSQSILYESRNKNSVMWYQQKAGQPPKLLIYWASTRESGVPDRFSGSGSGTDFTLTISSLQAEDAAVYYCQQYHRYPLSFGGGTKVEIK | 93 µM | 2/3 |
| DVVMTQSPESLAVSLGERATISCKSSQSVLYESRNKNSVAWYQQKAGQPPKLLIYWASARESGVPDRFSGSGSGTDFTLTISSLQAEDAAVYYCQQYNRLPCSFGGGTKVEIK | 25 nM | 3/3 |
| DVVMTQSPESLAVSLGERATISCKSSQSVLYESRNKNSVAWYQQKAGQPPKLLIYGASTRESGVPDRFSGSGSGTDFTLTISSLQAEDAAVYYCQQYHRLPWSFGGGTKVEIK | no signal | 0/3 |
| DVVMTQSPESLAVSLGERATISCKSSDSVLYESRNKNQVAWYQQKAGQPPKLLIYWASTRESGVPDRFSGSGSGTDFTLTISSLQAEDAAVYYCQQYHRLPKSFGGGTKVEIK | 3.1 µM | 3/3 |
| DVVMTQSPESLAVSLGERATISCKSSQSVLYESRNKNSVAWYQQKAGQPPKLLIYWASTRESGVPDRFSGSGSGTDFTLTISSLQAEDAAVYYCQAYVFLPLSFGGGTKVEIK | 180 µM | 2/3 |
| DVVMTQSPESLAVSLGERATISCKSSQSVLYESRNKNSVAWYQQKAGQPPKLLIYWASTREMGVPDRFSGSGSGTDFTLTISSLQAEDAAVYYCQGYHRRPLSFGGGTKVEIK | no signal | 0/3 |
| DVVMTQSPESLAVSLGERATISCKSSQSVLYETRNKNSVAWYQQKAGQPPKLLIYWLSTRETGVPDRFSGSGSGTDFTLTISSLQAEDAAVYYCQQYHRLPLSFGGGTKVEIK | 70 nM | 1/3 |
| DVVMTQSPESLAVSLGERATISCKSSQSVLYESKNKNSVAWYQQKAGQPPKLLIYWNSERESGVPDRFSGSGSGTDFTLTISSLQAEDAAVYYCQQYHRLPLSFGGGTKVEIK | 13 nM | 3/3 |
| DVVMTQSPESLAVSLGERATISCKSSQSVCYESRNKNSVAWYQQKAGQPPKLLIYWAATRESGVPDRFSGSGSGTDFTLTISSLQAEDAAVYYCQQYHVLPLSFGGGTKVEIK | 130 nM | 3/3 |
| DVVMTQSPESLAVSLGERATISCKSSQSVLYENRNKNSVAWYQQKAGQPPKLLIYWASKRESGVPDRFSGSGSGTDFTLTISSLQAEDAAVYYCQQYHRLPNSFGGGTKVEIK | 6.0 µM | 2/3 |
| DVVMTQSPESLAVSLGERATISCKSSQSVLYESRNKNSEAWYQQKAGQPPKLLIYWQSTRESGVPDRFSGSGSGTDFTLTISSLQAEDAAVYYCGQYHRLPLSFGGGTKVEIK | 150 µM | 1/3 |
| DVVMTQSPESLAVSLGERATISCKSSQSVNYESRNKNSVAWYQQKAGQPPKLLIYWASTRESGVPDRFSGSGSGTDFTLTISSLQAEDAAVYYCKQYHNLPLSFGGGTKVEIK | 7.2 nM | 3/3 |
| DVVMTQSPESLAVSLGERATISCKSSQSVLYYSRNKNSVKWYQQKAGQPPKLLIYWASTRESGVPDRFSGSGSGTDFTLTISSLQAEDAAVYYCQQYCRLPLSFGGGTKVEIK | no signal | 0/3 |
| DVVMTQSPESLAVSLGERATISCKSSQSVLYESRNKNSVAWYQQKAGQPPKLLIYWASTRLSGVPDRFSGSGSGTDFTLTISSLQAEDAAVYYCEFYHRLPLSFGGGTKVEIK | 130 nM | 3/3 |
| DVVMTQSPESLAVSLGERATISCKSSQSVLYESRNKNDVAWYQQKAGQPPKLLIYIASQRESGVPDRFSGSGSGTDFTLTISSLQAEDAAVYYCQQYHRLPLSFGGGTKVEIK | 850 µM | 1/3 |
| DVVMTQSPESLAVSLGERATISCKSKQSVLYESRNCNSVAWYQQKAGQPPKLLIYCASTRESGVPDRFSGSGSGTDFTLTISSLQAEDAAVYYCQQYHRLPLSFGGGTKVEIK | 110 nM | 3/3 |
| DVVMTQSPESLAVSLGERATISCKSSQTVLYESRNKVSVAWYQQKAGQPPKLLIYWASTQESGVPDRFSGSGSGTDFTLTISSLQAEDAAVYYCQQYHRLPLSFGGGTKVEIK | no signal | 0/3 |
| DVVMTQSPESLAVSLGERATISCKSFQSVLYESRSKNSVAWYQQKAGQPPKLLIYWYSTRESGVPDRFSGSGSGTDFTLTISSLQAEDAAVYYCQQYHRLPLSFGGGTKVEIK | no signal | 0/3 |

For reference, 2 entries of the list once more:

| VL | Kd (apparent) | detected |
|---|---|---|
| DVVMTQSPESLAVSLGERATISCKSSQSVLYESRNKNSVAWYQQKAGQPPKLLIYWASTRESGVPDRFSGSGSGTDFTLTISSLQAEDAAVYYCQAYVFLPLSFGGGTKVEIK | 180 µM | 2/3 |
| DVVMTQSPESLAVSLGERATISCKSSDSVLYESRNKNQVAWYQQKAGQPPKLLIYWASTRESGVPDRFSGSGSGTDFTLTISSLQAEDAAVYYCQQYHRLPKSFGGGTKVEIK | 3.1 µM | 3/3 |

In this assay the parent's reference entry averaged 4.4 nM; its copy inside this library read 48 nM.
Background: pairings of library AAYL50 with three empty control strains gave a value in 18% of cases (median 15 µM, 5th percentile 970 nM). Values in that range, when seen in few replicates, are hard to tell from nonspecific mating.